Data: PubChem BioAssay AID652 (University of Pittsburgh Molecular Library Screening Center, 2007)
The entries are a selection whose mix differs from that of the whole data set.

Molecular target: Gag-Pol polyprotein (Human immunodeficiency virus type 1 group M subtype B (isolate HXB2)) (UniProt P04585)
Assay: HIV-1 RT RNase H inhibitor potency, dose response, biochemical, probe assessment (AID 652)
Conditions: HIV-1 RT RNase H enzymatic assay, at 50 µM, stronger effect = higher value

**Q.** For COc1cc(/C=C/C(=O)CC(=O)/C=C/c2ccc(O)c(OC)c2)ccc1O, which inhibition is on record?
**A.** The inhibition was 87%.
